scFv variants of Ab-14 (light chain) against a SARS-CoV-2 spike peptide

All variants were tested on one target, the spike HR2 peptide PDVDLGDISGINAS (SARS-CoV-2).

Ab-14 is the parent antibody, in scFv form: VH, then a (GGGGS)3 linker, then VL. The heavy chain is unchanged in all variants.
VH: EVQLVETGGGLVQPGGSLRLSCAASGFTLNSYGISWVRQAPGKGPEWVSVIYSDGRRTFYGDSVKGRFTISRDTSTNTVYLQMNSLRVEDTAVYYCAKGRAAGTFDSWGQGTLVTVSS
VL: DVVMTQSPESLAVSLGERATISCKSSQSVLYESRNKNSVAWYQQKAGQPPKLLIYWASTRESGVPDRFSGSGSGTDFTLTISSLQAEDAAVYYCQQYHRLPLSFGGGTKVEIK

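Phage display of a naive human antibody library on the peptide gave the parent. This is the validation round: designs drawn from the data on random variants, tested in the same kind of assay. Several design methods are mixed in this list. The scFvs were displayed on barcoded MATa yeast, the peptide on MATalpha yeast. Mating (16 h, 30 °C) was followed by selection of diploids and sequencing of their barcodes. Read counts were normalised to the haploid input and turned into Kd by a linear fit to BCL2-family pairs of known affinity, for each replicate. There are six technical replicates.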

The whole VL of each variant is written out. This list holds designs with more than six substitutions. The read-out is the apparent dissociation constant on a log10 scale (nM): the lower, the stronger. The mean shown is taken over the replicates in which the pair was detected. A pair that was not seen in any replicate is written "nd"; this usually means weak binding, but a binder can also be missed. Order: sorted from the lowest average up, undetected variants last. As a blank, each scFv also met three strains without target: over all light chain designs, 4% of these pairings were detected, typically at 2.64 and seldom below 1.59. In the paper, a design with two or fewer of six values counts as a poor binder. The parent sequence was in this pool as ten entries: three were never detected, three once, and four in most replicates, with averages from 0.34 to 2.37. Values of this round are not directly comparable with the first-round values of the same sequences.

For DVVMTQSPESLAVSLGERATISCKLSQSVDYQSRNKNNVAWYQQKAGQPPKLLIYNAQTRMSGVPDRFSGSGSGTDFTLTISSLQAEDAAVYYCQQYHRLPLSFGGGTKVEIK, the assay gave -0.38 (6 of 6 replicates). Variant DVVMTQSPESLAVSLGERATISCKLRQQTLYETRNKNSVAWYQQKAGQPPKLLIYEASTREEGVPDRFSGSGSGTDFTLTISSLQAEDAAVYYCQQYHRLPLSFGGGTKVEIK showed -0.37 (6 of 6 replicates). For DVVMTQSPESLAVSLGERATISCKLEQQWEYESRNSNNVAWYQQKAGQPPKLLIYAASTRSDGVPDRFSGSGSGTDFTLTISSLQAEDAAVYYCQQYHRLPLSFGGGTKVEIK, the assay gave -0.21 (6 of 6 replicates). For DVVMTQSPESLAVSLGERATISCALTSDLEVEQVNARNVAWYQQKAGQPPKLLIYNAHAVESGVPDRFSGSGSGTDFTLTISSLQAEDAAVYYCQQYQHLPLSFGGGTKVEIK, the assay gave -0.07 (6 of 6 replicates). Variant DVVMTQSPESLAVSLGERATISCVMQMQQDRMQDAKQNIAWYQQKAGQPPKLLIYGVDMRETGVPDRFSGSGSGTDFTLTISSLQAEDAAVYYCQQYFRLPFLFGGGTKVEIK gave 0.05 (6 of 6 replicates). Variant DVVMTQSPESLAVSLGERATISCKLSMSYRYESQVKNSIAWYQQKAGQPPKLLIYEMSTREEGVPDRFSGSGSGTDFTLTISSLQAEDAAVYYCQSYHRLPLSFGGGTKVEIK showed 0.21 (6 of 6 replicates). With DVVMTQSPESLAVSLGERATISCKLVQSVDYEPRNKQSVAWYQQKAGQPPKLLIYDASTRLSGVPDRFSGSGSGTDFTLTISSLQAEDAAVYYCQQYHRLPLSFGGGTKVEIK the result was 0.27 (6 of 6 replicates). Variant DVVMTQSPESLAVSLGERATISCKVSEFMRGLMQKTDSIAWYQQKAGQPPKLLIYDNVTRVNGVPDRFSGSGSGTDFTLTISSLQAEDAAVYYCQQYDRLPLSFGGGTKVEIK showed 0.78 (6 of 6 replicates). Variant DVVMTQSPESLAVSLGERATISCKIELDLTRYNAGYAAIAWYQQKAGQPPKLLIYHETQKAQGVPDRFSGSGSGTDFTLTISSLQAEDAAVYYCQQYSRLPLVFGGGTKVEIK gave 0.84 (6 of 6 replicates).

Variant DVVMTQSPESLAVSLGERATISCKIAEGHFEYMHHGNHVAWYQQKAGQPPKLLIYEVSCRAYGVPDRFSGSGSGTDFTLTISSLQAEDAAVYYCQQYAHLPLVFGGGTKVEIK gave 1.05 (6 of 6 replicates). Variant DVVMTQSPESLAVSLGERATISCKLSMSYRYEQENKNSIAWYQQKAGQPPKLLIYELVTRMSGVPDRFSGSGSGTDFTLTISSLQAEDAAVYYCQQYHRLPLSFGGGTKVEIK showed 1.06 (6 of 6 replicates). For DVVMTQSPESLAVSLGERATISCRIFYNEEQDLRHKSSIAWYQQKAGQPPKLLIYNGSARVFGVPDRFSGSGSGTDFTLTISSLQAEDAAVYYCQQYYMLPLSFGGGTKVEIK, the assay gave 1.25 (6 of 6 replicates). Variant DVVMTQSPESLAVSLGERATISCIVSGLMLWGMHVKNSIAWYQQKAGQPPKLLIYEAETRINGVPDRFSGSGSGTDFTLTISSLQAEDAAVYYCQQYERLPLFFGGGTKVEIK gave 1.46 (2 of 6 replicates). For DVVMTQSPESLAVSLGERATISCHITMGMYVKGRHHSSIAWYQQKAGQPPKLLIYQAETRAKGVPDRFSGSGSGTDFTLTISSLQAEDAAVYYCQQYDHLPLIFGGGTKVEIK, the assay gave 1.64 (3 of 6 replicates). Variant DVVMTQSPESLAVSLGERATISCHMSMLTMMGMRHRNSVAWYQQKAGQPPKLLIYQMTMRENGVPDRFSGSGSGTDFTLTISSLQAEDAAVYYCQQYDRLPLMFGGGTKVEIK showed 1.85 (5 of 6 replicates). Variant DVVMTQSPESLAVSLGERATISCMISDMGLHDSRMQNSVAWYQQKAGQPPKLLIYNNSTREAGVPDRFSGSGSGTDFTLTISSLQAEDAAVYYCQQYDRLPLSFGGGTKVEIK gave 2.07 (2 of 6 replicates). Variant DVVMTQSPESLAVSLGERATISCKLSMSYRVETEEKNSIAWYQQKAGQPPKLLIYELVTRMSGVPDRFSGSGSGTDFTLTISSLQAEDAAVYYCQQYHRLPLSFGGGTKVEIK gave 2.38 (6 of 6 replicates). Variant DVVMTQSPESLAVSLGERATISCIVSQLMLWGYHHKNSIAWYQQKAGQPPKLLIYEAQTRLNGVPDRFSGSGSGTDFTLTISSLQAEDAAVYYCQQYDRLPLFFGGGTKVEIK showed 2.89 (5 of 6 replicates).

With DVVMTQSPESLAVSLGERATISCKLREVQHVESKKKNNVAWYQQKAGQPPKLLIYDNSTRESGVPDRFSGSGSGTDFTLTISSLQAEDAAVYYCQDYYRLPLSFGGGTKVEIK the result was nd (0 of 6 replicates). For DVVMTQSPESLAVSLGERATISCMLDNCQAGYYQKNNNIAWYQQKAGQPPKLLIYEMNMRCYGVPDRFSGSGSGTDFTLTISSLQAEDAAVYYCQQYGRLPLMFGGGTKVEIK, the assay gave nd (0 of 6 replicates). For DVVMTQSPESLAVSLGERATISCKSSQSALYESQNKNSVAWYQQKAGQPPKLLIYWDSWLNSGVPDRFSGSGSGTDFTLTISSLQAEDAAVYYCQQHHRLPLSFGGGTKVEIK, the assay gave nd (0 of 6 replicates). For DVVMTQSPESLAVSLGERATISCKLMLSLGESKQSERNVAWYQQKAGQPPKLLIYNMRVSVAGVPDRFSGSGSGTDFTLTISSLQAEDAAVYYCQQYDHLPLTFGGGTKVEIK, the assay gave nd (0 of 6 replicates).

For reference, 2 entries of the list once more:

VL,"mean, log10 nM",seen in
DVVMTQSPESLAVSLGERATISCMLDNCQAGYYQKNNNIAWYQQKAGQPPKLLIYEMNMRCYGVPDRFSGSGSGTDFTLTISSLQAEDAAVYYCQQYGRLPLMFGGGTKVEIK,nd,0 of 6
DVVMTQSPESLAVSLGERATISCKIELDLTRYNAGYAAIAWYQQKAGQPPKLLIYHETQKAQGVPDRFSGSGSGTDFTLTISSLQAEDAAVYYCQQYSRLPLVFGGGTKVEIK,0.84,6 of 6

Source: Li et al. 2023 (doi:10.1038/s41467-023-39022-2), MIT Lincoln Laboratory and A-Alpha Bio; data file from the FLAb repository.